The values below come from paper PMC12184805 (Journal of medicinal chemistry, 2025).

Chains of the proteins cited; added tags and fusions are not shown. Residues count along the entry.
UniProt P00743, 234-492 limits assumed: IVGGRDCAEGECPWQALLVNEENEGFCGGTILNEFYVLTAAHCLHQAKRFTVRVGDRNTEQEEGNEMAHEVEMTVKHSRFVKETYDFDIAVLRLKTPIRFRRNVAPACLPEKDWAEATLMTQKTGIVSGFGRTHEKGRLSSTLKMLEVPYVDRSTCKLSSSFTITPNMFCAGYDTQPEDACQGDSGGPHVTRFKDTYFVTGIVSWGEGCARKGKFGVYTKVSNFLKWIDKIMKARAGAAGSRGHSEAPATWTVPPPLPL

For this experiment, the target named is FXa (Bos taurus, UniProt P00743). Briefly: Factor Xa chromogenic substrate assay. It counts as biochemical. The settings on record: anticoagulant activity against FXa.

In turn, “1,2′,2‴,3,6‴-Penta-N-sulfo-2″,3′,3‴,4,4′,4‴-hexa-O-(2-naphthylmethyl)-5″,6′-(N-1,1′-biphenyl-4-yl)-paromomycindicarboxamide [Ligand L15]” showed an IC50 of over 500 µM.

For orientation: IC50 means the concentration needed to halve the response being measured.
